CycPeptMPDB entries from one study

Collected by the curators of CycPeptMPDB (Li et al. 2023) from Townsend et al. 2020, doi:10.26434/chemrxiv.13335941.v1.

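Lipid, pH, incubation time, direction and concentration are not recorded in the data file. Other peptides of the study may be missing here. Entries at the database's floor value (log10 P of -10) are not listed.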

PAMPA is the parallel artificial membrane permeability assay, which has no cells and reads passive diffusion. Permeability is in 10^-6 cm/s, converted from the database's log10 values; higher is more permeable.

PAMPA (10^-6 cm/s)	compound
4.6	CC(C)C[C@H]1C(=O)N(C)[C@@H](CC(C)C)C(=O)N2CCC[C@H]2C(=O)N(C)[C@@H](CC(C)C)C(=O)N[C@@H](Cc2ccccc2)C(=O)N2CCC[C@H]2C(=O)N(C)[C@H](C)C(=O)N1C
1.1	CC(C)C[C@H]1NC(=O)[C@H]2CCCN2C(=O)[C@H](CC(C)C)N(C)C(=O)[C@H](CC(C)C)N(C)C(=O)[C@@H](C)NC(=O)[C@H](Cc2ccccc2)NC1=O
0.71	CC(C)C[C@H]1C(=O)N(Cc2ccccc2)CC(=O)N2CCC[C@H]2C(=O)N(C)[C@@H](CC(C)C)C(=O)N[C@@H](Cc2ccccc2)C(=O)N2CCC[C@H]2C(=O)N[C@H](C)C(=O)N1C
3.5	CC(C)C[C@@H]1C(=O)N(C)[C@H](CC(C)C)C(=O)N2CCC[C@@H]2C(=O)N(C)[C@@H](CC(C)C)C(=O)N[C@@H](Cc2ccccc2)C(=O)N2CCC[C@H]2C(=O)N[C@@H](C)C(=O)N1C
2.6	CCCN1CC(=O)N[C@H](CC(C)C)C(=O)N(C)[C@H](CC(C)C)C(=O)N2CCC[C@H]2C(=O)N[C@@H](CC(C)C)C(=O)N[C@@H](Cc2ccccc2)C(=O)N2CCC[C@H]2C1=O
2	CC(C)C[C@@H]1C(=O)N[C@@H](Cc2ccccc2)CC(=O)N2CCC[C@@H]2C(=O)N(C)[C@H](CC(C)C)C(=O)N[C@@H](Cc2ccccc2)C(=O)N2CCC[C@H]2C(=O)N[C@@H](Cc2ccccc2)CC(=O)N1C
2	CC(C)C[C@@H]1NC(=O)[C@@H]2CCCN2C(=O)[C@@H](CC(C)C)N(C)C(=O)[C@H](CC(C)C)NC(=O)[C@H](C)NC(=O)[C@H](Cc2ccccc2)NC1=O
5.1	CC(C)C[C@@H]1C(=O)N[C@@H](Cc2ccccc2)CC(=O)N2CCC[C@H]2C(=O)N[C@H](CC(C)C)C(=O)N[C@@H](Cc2ccccc2)C(=O)N(C)[C@H](C)C(=O)N1C
6.8	CC(C)C[C@@H]1C(=O)N(C)[C@@H](CC(C)C)C(=O)N2CCC[C@H]2C(=O)N(C)[C@H](CC(C)C)C(=O)N[C@@H](Cc2ccccc2)C(=O)N2CCC[C@@H]2C(=O)N[C@@H](C)C(=O)N1C
1.8	CC(C)C[C@@H]1NC(=O)[C@@H]2CCCN2C(=O)[C@H](CC(C)C)NC(=O)[C@H](CC(C)C)N(C)C(=O)C[C@H](Cc2ccccc2)NC(=O)[C@H](Cc2ccccc2)NC1=O
1.9	CC(C)C[C@@H]1NC(=O)[C@H](C)N(C)C(=O)[C@H]2CCCN2C(=O)[C@H](Cc2ccccc2)NC(=O)[C@@H](CC(C)C)N(C)C(=O)[C@@H]2CCCN2C(=O)[C@@H](CC(C)C)NC1=O
7.8	CC(C)C[C@@H]1C(=O)N[C@H](CC(C)C)C(=O)N2CCC[C@@H]2C(=O)N(C)[C@@H](CC(C)C)C(=O)N[C@@H](Cc2ccccc2)C(=O)N2CCC[C@H]2C(=O)N(C)[C@H](C)C(=O)N1C
3.2	CC(C)C[C@@H]1C(=O)N[C@@H](Cc2ccccc2)C(=O)N2CCC[C@@H]2C(=O)N[C@H](C)C(=O)N(C)[C@@H](CC(C)C)C(=O)N(C)[C@@H](CC(C)C)C(=O)N2CCC[C@H]2C(=O)N1C
3.2	CC(C)C[C@@H]1C(=O)N[C@H](CC(C)C)C(=O)N2CCC[C@H]2C(=O)N[C@H](CC(C)C)C(=O)N[C@@H](Cc2ccccc2)C(=O)N2CCC[C@H]2C(=O)N[C@@H](Cc2ccccc2)CC(=O)N1C
0.58	CC(C)C[C@@H]1NC(=O)[C@H](C)NC(=O)[C@H]2CCCN2C(=O)[C@H](Cc2ccccc2)NC(=O)[C@H](CC(C)C)N(C)C(=O)[C@H]2CCCN2C(=O)[C@@H](CC(C)C)N(C)C1=O
1.9	CC(C)C[C@@H]1C(=O)N[C@@H](Cc2ccccc2)C(=O)N2CCC[C@@H]2C(=O)N(C)[C@@H](C)C(=O)N(Cc2ccccc2)CC(=O)N[C@@H](Cc2ccccc2)CC(=O)N2CCC[C@H]2C(=O)N1C
0.85	CC(C)C[C@@H]1C(=O)N(C)[C@@H](CC(C)C)C(=O)N2CCC[C@H]2C(=O)N[C@H](CC(C)C)C(=O)N[C@@H](Cc2ccccc2)C(=O)N(C)[C@@H](C)C(=O)N1C
2	CC(C)C[C@@H]1C(=O)N[C@H](CC(C)C)C(=O)N2CCC[C@@H]2C(=O)N[C@H](CC(C)C)C(=O)N[C@@H](Cc2ccccc2)C(=O)N(C)[C@@H](C)C(=O)N1C
0.78	CCCN1CC(=O)N[C@@H](CC(C)C)C(=O)N(Cc2ccccc2)CC(=O)N2CCC[C@@H]2C(=O)N[C@H](CC(C)C)C(=O)N[C@@H](Cc2ccccc2)C1=O
1.3	CC(C)C[C@@H]1C(=O)N[C@@H](Cc2ccccc2)C(=O)N2CCC[C@H]2C(=O)N[C@H](C)C(=O)N(C)[C@@H](CC(C)C)C(=O)N(Cc2ccccc2)CC(=O)N2CCC[C@H]2C(=O)N1C
0.27	CC(C)C[C@@H]1NC(=O)[C@H](C)NC(=O)[C@@H]2CCCN2C(=O)[C@H](Cc2ccccc2)NC(=O)CN(Cc2ccccc2)C(=O)[C@H]2CCCN2C(=O)[C@H](CC(C)C)N(C)C1=O
3.2	CC(C)C[C@@H]1C(=O)N[C@H](CC(C)C)C(=O)N2CCC[C@@H]2C(=O)N(Cc2ccccc2)CC(=O)N[C@@H](Cc2ccccc2)C(=O)N[C@@H](C)C(=O)N1C
2.6	CC(C)C[C@@H]1C(=O)N[C@@H](Cc2ccccc2)C(=O)N2CCC[C@H]2C(=O)N(C)[C@H](C)C(=O)N[C@H](CC(C)C)C(=O)N(C)[C@@H](CC(C)C)C(=O)N2CCC[C@H]2C(=O)N1C

Extract of 2 entries:

compound	PAMPA (10^-6 cm/s)
CC(C)C[C@@H]1C(=O)N[C@@H](Cc2ccccc2)C(=O)N2CCC[C@@H]2C(=O)N[C@H](C)C(=O)N(C)[C@@H](CC(C)C)C(=O)N(C)[C@@H](CC(C)C)C(=O)N2CCC[C@H]2C(=O)N1C	3.2
CC(C)C[C@@H]1C(=O)N[C@H](CC(C)C)C(=O)N2CCC[C@@H]2C(=O)N(Cc2ccccc2)CC(=O)N[C@@H](Cc2ccccc2)C(=O)N[C@@H](C)C(=O)N1C	3.2